The text below walks through data of ChEMBL document CHEMBL3393014, “Discovery of 5-(1H-indol-5-yl)-1,3,4-thiadiazol-2-amines as potent PIM inhibitors” (Bioorg Med Chem Lett, 2015).

Amino acid sequences for entries named in this document (tags omitted). A change or cut given only in a name is not applied to a line headed by its entry.
UniProt Q9P1W9: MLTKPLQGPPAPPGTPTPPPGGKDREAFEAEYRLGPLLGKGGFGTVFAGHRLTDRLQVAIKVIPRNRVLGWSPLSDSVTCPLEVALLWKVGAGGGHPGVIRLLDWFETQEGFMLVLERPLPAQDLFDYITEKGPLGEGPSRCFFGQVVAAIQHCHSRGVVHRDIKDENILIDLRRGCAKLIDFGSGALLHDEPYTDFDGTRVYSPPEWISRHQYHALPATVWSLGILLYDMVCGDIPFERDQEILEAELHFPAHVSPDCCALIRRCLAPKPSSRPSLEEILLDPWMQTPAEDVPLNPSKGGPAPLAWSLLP

Assay [1] concerns the target Serine/threonine-protein kinase pim-2 (Homo sapiens, UniProt Q9P1W9). As to the kind of experiment: Inhibition of PIM2 in human U2OS cells assessed as phosphorylation of BAD. It is filed as cell-based.
Assay [2] deals with Serine/threonine-protein kinase pim-3 (Homo sapiens, UniProt Q86V86). The experiment in a line: Inhibition of full length recombinant PIM3 (unknown origin) using biotinylated-BAD peptide as substrate assessed as phosphorylation at serine 112 after 45 mins by HTRF method.

In the case of `Nc1nnc(-c2ccc3[nH]cc(-c4cccc(OC5CCCC5)n4)c3c2)s1`, the IC50 in assay [1] worked out at 6.9 µM.
For `CC(C)Oc1cccc(-c2c[nH]c3ccc(-c4nnc(N)s4)cc23)n1`, the IC50 in assay [2] worked out at 0.002 µM.
